The source of these data is paper PMC3990705, “A p38 Substrate-Specific MK2-EGFP Translocation Assay for Identification and Validation of New p38 Inhibitors in Living Cells: A Comprising Alternative for Acquisition of Cellular p38 Inhibition Data” (PLoS ONE, 2014).

Protein sequences, listed by entry. Tags and fused reporters are not part of them.
UniProt Q16539, whole entry: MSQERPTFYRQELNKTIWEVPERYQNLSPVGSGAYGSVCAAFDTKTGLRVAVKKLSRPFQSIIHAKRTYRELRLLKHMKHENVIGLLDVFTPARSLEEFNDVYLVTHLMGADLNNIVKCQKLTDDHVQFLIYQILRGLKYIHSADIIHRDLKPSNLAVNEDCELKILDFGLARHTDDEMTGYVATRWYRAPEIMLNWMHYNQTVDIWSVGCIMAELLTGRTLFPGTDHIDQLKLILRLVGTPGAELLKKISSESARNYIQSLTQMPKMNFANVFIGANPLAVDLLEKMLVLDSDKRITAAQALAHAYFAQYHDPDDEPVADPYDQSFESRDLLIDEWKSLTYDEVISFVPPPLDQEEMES

Molecules are shown by their SMILES.

The target of one assay is p38α MAPK (Homo sapiens, UniProt Q16539). Nature of the assay: Biochemical p38 MAPK activity assay (BAA), ELISA of ATF-2 phosphorylation. Particulars: read-out: BAA p38 IC50 ± SD; inhibition of phosphorylation of ATF2, N = 3.
In assay [1] the test system is TNFα release in human whole blood. Nature of the assay: Whole blood assay (WBA), TNFα release after LPS stimulation. Particulars: read-out: WBA TNFα IC50 ± SD, N = 3.
The target of a further assay is p38 MAPK (Homo sapiens, UniProt Q16539). Put plainly: MK2-EGFP translocation assay (High Content Analysis). In kind it is cell-based. Particulars: 15 nM compound, activated U2OS MK2-EGFP cells, N = 3.

The IC50 is the concentration that inhibits the measured activity by half.

On to `CC(C)C(C)Nc1cc(-c2[nH]c(SCCO)nc2-c2ccc(F)cc2)ccn1` (stereo not drawn), for which the IC50 is 11.8 nM on p38α MAPK and 21 nM in assay [1]. Also, the “nuc/cyt ratio at 15 nM ± SD” value on p38 MAPK was 0,982±0,0335.
